Measured values from US10214536B2, “Amlexanox analogs” (The Regents of the University of Michigan, priority 2016, dated 2019).

By UniProt entry, the sequences of proteins in these tests, tags left out. Residues count along the entry.
UniProt Q9UHD2, 1-657: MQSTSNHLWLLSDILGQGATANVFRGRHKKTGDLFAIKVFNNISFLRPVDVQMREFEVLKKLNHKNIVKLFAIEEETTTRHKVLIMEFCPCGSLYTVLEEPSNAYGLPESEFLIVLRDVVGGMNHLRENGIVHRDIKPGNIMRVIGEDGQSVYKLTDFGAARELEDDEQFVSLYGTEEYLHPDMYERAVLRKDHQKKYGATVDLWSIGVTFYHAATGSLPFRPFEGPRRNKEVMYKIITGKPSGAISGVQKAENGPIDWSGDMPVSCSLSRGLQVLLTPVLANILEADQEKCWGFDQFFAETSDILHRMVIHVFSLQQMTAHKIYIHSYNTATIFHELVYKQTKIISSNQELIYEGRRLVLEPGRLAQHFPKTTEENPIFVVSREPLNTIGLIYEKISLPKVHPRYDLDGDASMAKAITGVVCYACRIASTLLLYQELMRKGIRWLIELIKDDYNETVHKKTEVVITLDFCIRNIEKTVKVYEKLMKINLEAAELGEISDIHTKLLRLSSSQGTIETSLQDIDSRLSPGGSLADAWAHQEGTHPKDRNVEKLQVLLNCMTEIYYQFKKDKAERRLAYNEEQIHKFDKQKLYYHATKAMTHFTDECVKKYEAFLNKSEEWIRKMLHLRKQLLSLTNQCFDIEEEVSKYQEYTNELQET

Target: TBK1 (residues 1-657) (Homo sapiens (Human), UniProt Q9UHD2)
Assay: TBK1 dose-response kinase assay
Type: biochemical
Details: TBK1 IC50 relative to amlexanox; greater than 1 = improved potency

Nc1nc2oc3cc(F)c(C4=CCCCC4)cc3c(=O)c2cc1C(=O)O [Compound 268b, 2-Amino-7-(cyclohex-1-en-1-yl)-8-fluoro-5-oxo-5H-chromeno[2,3-b]pyridine-3-carboxylic acid]
Fold Over Amlexanox: 0.00
